Results as given in PubChem BioAssay AID720702 (The Scripps Research Institute Molecular Screening Center, 2013).
This is a selection; strong and weak results do not stand in their true shares. The source made the active and inactive calls.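 The calls were made as follows: active = inhibition above the mean of all tested compounds plus 3 SD, set per campaign (cut at about 25% in these data); inactive = the rest.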

The chains behind the UniProt entries cited, without tags or fusion partners. Where a name states a change or a piece, a line headed by the entry shows the natural chain unless it says otherwise.
UniProt O95551: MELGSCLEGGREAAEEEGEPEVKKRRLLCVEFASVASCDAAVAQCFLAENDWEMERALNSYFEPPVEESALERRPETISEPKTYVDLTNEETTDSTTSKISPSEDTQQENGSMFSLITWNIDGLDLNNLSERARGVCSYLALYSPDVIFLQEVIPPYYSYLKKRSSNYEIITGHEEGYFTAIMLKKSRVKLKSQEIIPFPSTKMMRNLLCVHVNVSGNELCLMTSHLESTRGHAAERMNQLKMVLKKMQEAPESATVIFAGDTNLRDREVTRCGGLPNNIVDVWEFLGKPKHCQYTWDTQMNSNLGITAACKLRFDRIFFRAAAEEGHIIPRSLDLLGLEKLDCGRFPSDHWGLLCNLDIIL

Each compound was assayed against Tyrosyl-DNA phosphodiesterase 2 (Homo sapiens) (UniProt O95551) (assay: blockers of TDP2 phosphodiesterase activity – biochemical, epi absorbance, recombinant enzyme, primary screen (AID 720702;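 also: 0% = DMSO with enzyme and 100% = buffer with substrate but no TDP2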)). Conditions: recombinant TDP2, T5PNP hydrolysis, p-nitrophenol absorbance 415 nm; at 12.8 µM; hits give high values.
In short: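 System: recombinant human TDP2 / Amount: 120 nM TDP2 per well / Also added: 5 mM T5PNP chromogenic substrate / Doses: 12.8 µM single point, 1% DMSO / Incubation: 2 h at 37 °C / Detection: p-Nitrophenol epi absorbance / Evaluation: % inhibition relative to enzyme-containing and enzyme-free wells / Repeats: singlicate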
With `O=P1(Nc2nc3ccc(Cl)cc3s2)COc2ccccc2O1` (configuration not stated) the inhibition was inactive: -1.82%.
With `CCOc1ccc(C2=NCC(CBr)S2)cc1` (configuration not stated) the inhibition was inactive: -0.04%.
For `CCc1cc(O)c([N+](=O)[O-])c(C)c1[N+](=O)[O-]`, the inhibition was inactive: -9.66%.
With `CC(C)(C)C(=O)NC(Sc1ccccc1)C(Cl)(Cl)Cl` (configuration not stated) the inhibition was inactive: 1.58%.
In the case of `CC(=O)c1ccc(N2CC2c2ccncc2)cc1` (configuration not stated), the inhibition is reported as active: 24.8%.
`N#C/C(=C\c1ccc(N(CCBr)CCBr)cc1)C(N)=O` was tested, and the inhibition was inactive: -3.86%.
`COC(=O)C1(C)COP(=O)(NCc2ccccc2)OC1` (configuration not stated) was tested, and the inhibition was inactive: -0.79%.
`Cc1ccccc1CN(C)C(=O)COC(=O)C(O)(c1ccccc1)c1ccccc1` was tested, and the inhibition was inactive: -3.38%.
With `C[C@H]1OP(=O)(Oc2ccccc2)C[C@@H]2O[C@@H]21` (some centres not stated) the inhibition was inactive: 0.49%.
With `C[C@@H]1C=CCP(=O)(Oc2ccccc2)O1` (some centres not stated) the inhibition was inactive: -10.1%.
In the case of `CC(=O)Nc1ccc([As](=O)(O)O)c(O)c1`, the inhibition is reported as inactive: 3.23%.
`CC(=O)Nc1ccc(Oc2c([N+](=O)[O-])cc([N+](=O)[O-])cc2[N+](=O)[O-])cc1` was tested, and the inhibition was inactive: -5.56%.
`CCNC(=S)/N=C(\N)N[N+](=O)[O-]` was tested, and the inhibition was inactive: 7.15%.
`O=C(NC1CCS(=O)(=O)C1)NP(=S)(Oc1ccccc1)Oc1ccccc1` (configuration not stated) was tested, and the inhibition was inactive: -0.06%.
In the case of `c1ccc(-c2nn[nH]n2)c(-c2nn[nH]n2)c1`, the inhibition is reported as inactive: 8.41%.
`Cc1ccc(NP(=O)(Oc2cccc(C)c2)Oc2cccc(C)c2)nc1` was tested, and the inhibition was inactive: 8.65%.
For `O=P1(N(CCCl)CCCl)OCCC2CCCCN21` (configuration not stated), the inhibition was inactive: 2.04%.
`COC(=O)c1cc2c(s1)N=C(c1ccccc1)N(C)P2(=O)N1CCOCC1` (configuration not stated) was tested, and the inhibition was inactive: -3.36%.
`Cc1ccc(OP(=O)(Nc2ccccn2)Oc2ccc(C)cc2)cc1` was tested, and the inhibition was inactive: -12.3%.
For `CC(=O)NC(SC(=S)N(CC(C)C)CC(C)C)C(Cl)(Cl)Cl` (configuration not stated), the inhibition was inactive: 8.13%.
`O=C(OC1CN2CCC1CC2)c1ccccc1` (configuration not stated) was tested, and the inhibition was inactive: -3.11%.
`CCC(=O)N1C2C3N(C(=O)CC)C1C1N(C(=O)CC)C(C(N1C(=O)CC)N3C(=O)CC)N2C(=O)CC` was tested, and the inhibition was inactive: -3.63%.
In the case of `CC(NC(=O)COC(=O)C(O)(c1ccccc1)c1ccccc1)c1ccccc1` (configuration not stated), the inhibition is reported as inactive: -6.98%.
With `Cc1ccccc1OP(=O)(Nc1ccccn1)Oc1ccccc1C` the inhibition was inactive: -18.1%.
In the case of `O=c1c2cc([N+](=O)[O-])ccc2[nH]c2c([N+](=O)[O-])cc([N+](=O)[O-])cc12`, the inhibition is reported as inactive: 12.7%.
In the case of `CN(C)C(=O)Oc1noc2ccccc12`, the inhibition is reported as inactive: -1.05%.
With `COc1ccc(N)c([N+](=O)[O-])c1[N+](=O)[O-]` the inhibition was inactive: -8.6%.
`Nc1ccc(CCCCOc2ccccc2)cc1` was tested, and the inhibition was inactive: -3.56%.
In the case of `O=P(Nc1ccccn1)(c1ccc(Br)cc1)c1ccc(Br)cc1`, the inhibition is reported as inactive: 8.03%.
`CN(C)C1(CNC(=O)c2ccc(Cl)c(S(N)(=O)=O)c2)CCCCC1` was tested, and the inhibition was inactive: 4.8%.
For `O=P(Nc1nc2ccccc2s1)(c1ccccc1)c1ccccc1`, the inhibition was inactive: 13%.
With `C[C@H]1OP(=O)(Oc2ccccc2)[C@H](O)[C@H](O)[C@H]1N=[N+]=[N-]` (some centres not stated) the inhibition was inactive: 15.7%.
In the case of `O=[N+]([O-])c1ncn(CCn2cnc([N+](=O)[O-])n2)n1`, the inhibition is reported as inactive: 12%.
`CC(=O)NC(SC(=S)N(C)C)C(Cl)(Cl)Cl` (configuration not stated) was tested, and the inhibition was inactive: 5.53%.
In the case of `O=[As](O)(c1ccccc1)c1ccc(O)cc1`, the inhibition is reported as inactive: -6.36%.
For `C/C(N)=N\P(=O)(OCc1ccccc1)OCc1ccccc1`, the inhibition was inactive: -1.25%.
With `C(Cc1nn[nH]n1)Cc1nn[nH]n1` the inhibition was inactive: 5.12%.
For `Nc1ccc([As](=O)(O)c2ccc([N+](=O)[O-])cc2)cc1`, the inhibition was inactive: 10.7%.
In the case of `O=C(OC1CN2CCC1CC2)c1cccc(Cl)c1` (configuration not stated), the inhibition is reported as inactive: -5.21%.
In the case of `CC(C)C(=O)NC(Sc1ccccc1)C(Cl)(Cl)Cl` (configuration not stated), the inhibition is reported as inactive: 10.2%.
With `O=P(Nc1nccs1)(c1ccccc1)c1ccccc1` the inhibition was inactive: 6.67%.
In the case of `c1nnnn1CCn1cnnn1`, the inhibition is reported as inactive: -2.96%.
For `COc1ccc(C2=NCC(CBr)S2)cc1` (configuration not stated), the inhibition was inactive: 16%.
With `O=[N+]([O-])c1cccc2n[nH]nc12` the inhibition was inactive: -7.28%.
With `CC(=O)N1C2C3N(C(C)=O)C1C1N(C(C)=O)C(C(N1C(C)=O)N3C(C)=O)N2C(C)=O` the inhibition was inactive: -0.98%.
In the case of `Cc1ccc(NP(=O)(Oc2ccccc2)Oc2ccccc2)nc1`, the inhibition is reported as inactive: -20.1%.
`CCc1nc2c(n1)c1c(non1O)c1c2no[n+]1[O-]` was tested, and the inhibition was inactive: -2.06%.
With `O=[N+]([O-])c1cc([N+](=O)[O-])c(CCNc2ccccc2)c([N+](=O)[O-])c1` the inhibition was inactive: -5.06%.
For `Nc1ccc([As](=O)(O)c2ccc(N)cc2)cc1`, the inhibition was inactive: -2.4%.
With `C[N+]1=C2C=CC=CC=C2SC12C([N+](=O)[O-])=CC([N+](=O)[O-])=C[C-]2[N+](=O)[O-]` (configuration not stated) the inhibition was inactive: 20.5%.
`CCN(/C(=N/P(=O)(N1CCOCC1)N1CCOCC1)N1CCOCC1)c1ccc(OC)cc1` was tested, and the inhibition was inactive: 5.53%.
For `CC(C)c1nc(Nc2ccccc2)n(P(=O)(N(C)C)N(C)C)n1`, the inhibition was inactive: -16.8%.
`CC(C)=N/N=C(\N)N[N+](=O)[O-]` was tested, and the inhibition was inactive: 1.18%.
In the case of `CN(C)C(=O)OCCc1n(C)cc[n+]1C`, the inhibition is reported as inactive: 15.1%.
For `CC1CCN(C(=O)Oc2c(Cl)cc(Cl)c3cccnc23)CC1`, the inhibition was inactive: 6.28%.
In the case of `c1cc(-c2nn[nH]n2)ccc1-c1nn[nH]n1`, the inhibition is reported as inactive: -2.08%.
In the case of `O=P1(N(CCCl)CCCl)OCCCS1` (configuration not stated), the inhibition is reported as inactive: 7.64%.
With `O=C(Nc1cc([As](=O)(O)O)ccc1O)c1ccccc1` the inhibition was inactive: -9.7%.
`CC(C)(C)C(=O)NC(Sc1ccncn1)C(Cl)(Cl)Cl` (configuration not stated) was tested, and the inhibition was inactive: -13.2%.
For `O=[N+]([O-])c1ncn(CCn2ncnc2[N+](=O)[O-])n1`, the inhibition was inactive: 5.26%.
`COC(=O)C1(C)COP(=O)(Nc2ccccc2)OC1` (configuration not stated) was tested, and the inhibition was inactive: 6.35%.
With `O=[N+]([O-])c1cccc(NC2=NCC(CBr)S2)c1` (configuration not stated) the inhibition was inactive: -4.82%.
In the case of `O=C(O)CNc1ccc([As](=O)(O)O)cc1`, the inhibition is reported as inactive: 3.15%.
For `CC(=O)Nc1ccc([As](=O)(O)O)cc1`, the inhibition was inactive: 1.37%.
`O=C(O)c1ccccc1[As](=O)(O)O` was tested, and the inhibition was inactive: 13.2%.
With `CCCC1OP(N)(=O)OCC1CC` (configuration not stated) the inhibition was inactive: 2.02%.
In the case of `O=P(Nc1nc2ccc(Cl)cc2s1)(c1ccccc1)c1ccccc1`, the inhibition is reported as inactive: 6.88%.
With `CN(C)P(=O)(N(C)C)n1c(Nc2ccccc2)nnc1-c1ccccc1` the inhibition was inactive: 6.91%.
With `Cc1cc(SC(NC(=O)c2ccc(F)cc2)C(Cl)(Cl)Cl)ncn1` (configuration not stated) the inhibition was inactive: -2%.
`CCOP(=O)(Nc1ccccc1)OCC` was tested, and the inhibition was inactive: -5.75%.
With `Cc1ccc(NP(=O)(Oc2ccccc2F)Oc2ccccc2F)nc1` the inhibition was inactive: 9.33%.
For `CN(C(=O)Cc1ccc(Cl)c(Cl)c1)[C@H]1CCCC[C@@H]1N1CCCC1`, the inhibition was inactive: -3.15%.
In the case of `CCn1c(=O)n(C2CCN(CC3CCCCCCC3)C[C@H]2CO)c2ccccc21` (some centres not stated), the inhibition is reported as inactive: 1.55%.
For `CN(C(=O)Cc1ccccc1)C1CC[C@@]2(CCCO2)C[C@@H]1N1CCCC1` (some centres not stated), the inhibition was inactive: -7.79%.
For `CCN(N=Nc1nonc1N)c1nonc1N`, the inhibition was inactive: -6.86%.
For `Nc1cccc2ccc([As](=O)(O)O)cc12`, the inhibition was active: 37.2%.
For `NC(=O)c1cc([N+](=O)[O-])cc([N+](=O)[O-])c1N`, the inhibition was inactive: -1.47%.
With `CN(C(=O)Cc1ccc(Cl)c(Cl)c1)[C@H]1CCCC[C@H]1N1CCCC1` the inhibition was inactive: -9.47%.
In the case of `Cc1ccc(N/C(=N/P(=O)(N2CCOCC2)N2CCOCC2)N2CCOCC2)cc1`, the inhibition is reported as inactive: -2.37%.
`COc1ccccc1OP(=O)(Nc1ccc(C)cn1)Oc1ccccc1OC` was tested, and the inhibition was inactive: -9.21%.
`Cc1ccc(OP(=O)(Nc2nccs2)Oc2ccc(C)cc2)cc1` was tested, and the inhibition was inactive: 4.43%.
With `CN1CCCC(OC(=O)C(c2ccccc2)c2ccccc2)C1` (configuration not stated) the inhibition was inactive: 3.79%.
For `Clc1ccc(Cl)c(NC2=NCC(CBr)S2)c1` (configuration not stated), the inhibition was inactive: 3.33%.
`Nc1cc(N)c2nonc2c1[N+](=O)[O-]` was tested, and the inhibition was inactive: 17.7%.
In the case of `CC(C)CC(=O)NC(Sc1ccc(Cl)cc1)C(Cl)(Cl)Cl` (configuration not stated), the inhibition is reported as inactive: -12.5%.
For `Oc1ccccc1CNc1ccccn1`, the inhibition was inactive: 1.94%.
`O=C(NC(Sc1ccncn1)C(Cl)(Cl)Cl)c1ccccc1` (configuration not stated) was tested, and the inhibition was inactive: -4.42%.
In the case of `O=C(OC1CN2CCC1CC2)C12CC3CC(CC(C3)C1)C2` (configuration not stated), the inhibition is reported as inactive: -9.13%.
With `Cc1cc(=O)[nH]c(N[N+](=O)[O-])n1` the inhibition was inactive: 4.93%.
`Cc1c2c(nc3ccccc13)SC(C(Cl)Cl)C2` (configuration not stated) was tested, and the inhibition was inactive: 1.02%.
For `COc1ccc2nc(NP(=O)(c3ccccc3)c3ccccc3)sc2c1`, the inhibition was inactive: 4.15%.
`COc1cc(I)ccc1[As](=O)(O)O` was tested, and the inhibition was inactive: -11.2%.
With `O=P1(N(CCCl)CCCl)OCCCN1CCCl` (configuration not stated) the inhibition was inactive: 3.75%.
In the case of `O=P1(N(CCCl)CCCl)Nc2ccccc2N1`, the inhibition is reported as inactive: 4.65%.
In the case of `COc1ccc(N/C(=N/P(=O)(N2CCOCC2)N2CCOCC2)N2CCOCC2)cc1`, the inhibition is reported as inactive: 3.56%.
With `O=[N+]([O-])c1cc(Oc2ccc([N+](=O)[O-])cc2C(F)(F)F)cc([N+](=O)[O-])c1` the inhibition was inactive: 2.4%.
With `O=[As](O)(c1ccc(O)cc1)c1ccccc1O` the inhibition was inactive: -1.13%.
`C[As](=O)(O)c1cccc(C(=O)O)c1` was tested, and the inhibition was inactive: -7.74%.
`O=[N+]([O-])c1ccc(-c2cc([N+](=O)[O-])c(O)c([N+](=O)[O-])c2)cc1` was tested, and the inhibition was inactive: -10.7%.
In the case of `COc1cc(C(=O)NCC2(N3CCOCC3)CCCCC2)ccc1OCC(C)C`, the inhibition is reported as inactive: 2.24%.
`Cc1ccc2nc3c(c(C)c2c1)CC(C(Cl)Cl)S3` (configuration not stated) was tested, and the inhibition was inactive: -7.21%.
With `[N-]=[N+]=NC1CCCCC1NC(=O)c1cc([N+](=O)[O-])cc([N+](=O)[O-])c1` (configuration not stated) the inhibition was inactive: 14.3%.
